From patent US8440640B2, “Methods and compositions for treating obesity and related disorders” (University of Medicine and Dentistry of New Jersey, priority 2008, dated 2013)

Experiments:
AC5 = assay: Inhibition of recombinant AC5 (baculovirus overexpression system); assay type: biochemical
H9C2 cells = assay: cAMP accumulation in H9C2 cells; assay type: cell-based

With `Nc1ncnc2c1ncn2C1CCC(C(=O)NO)C1` (single isomer, unassigned) the selectivity ratio between AC5 and AC2 (AC5) was 207 and the “inhibition of cAMP accumulation in intact H9C2 cells” value (H9C2 cells) was “inhibited cAMP accumulation”.
